Experimental data from patent publication US20220334101A1, “MODULATING EXTRACELLULAR MATRIX MOVEMENT” (Helmholtz Zentrum Muenchen - Deutsches Forschungszentrum …, priority 2019, published 2022).

Tested on: skin-fascia explants
Assay: Scar-in-a-dish (SCAD) ex vivo skin-fascia explant assay, screening of Prestwick chemical library
Assay type: cell-based, mouse
Conditions: molecules of table 1 named as inhibitors of ECM movement
Description: Post born Day 0 (P0) neonates of C57BL/6J wild type mouse were first sacrificed by decapitation. Then dorsal back skin was isolated to make 2 mm full thickness biopsies (0 2 mm, Stiefel) that included the epidermis, dermis and deep subcutaneous fascia layers. The whole skin tissue explant system is termed as scar-in-a-dish (SCAD) assay (Patent Application no. PLA17A13). The SCAD tissue was maintained in DMEM/F12 cell culture medium (Life Technologies) supplemented with 10% FBS (Life Technologies), 1% non-essential amino acid (Thermo Fisher), 1% Glutamax (Thermo Fisher), 1% penicillin and streptomycin (Thermo Fisher) in a 37° C. incubator supplied with […] and 5% CO2. Medium was changed every other day until day 5 when SCADs were collected and fixed for histology analysis. To be noticed, the excised skin was submerged […] in culture media, which confined the scar-prone fibroblasts to the explant and discouraged their adherence to the tissue culture plate.
The PCL provides an additional advantage as all chemicals are of stable physicochemical properties, show a high range of chemical diversity, and are with known bioavailability and safety data in humans. All these information helps to reduce the probability of screening low-quality hits and save the costs of preliminary screening process. […]

## Amyleine hydrochloride
  phenotype as inhibitor of ECM movement: anti-fibrotic phenotype
